Data from US20150291593A1, “NOVEL HETEROARYL AND HETEROCYCLE COMPOUNDS, COMPOSITIONS AND METHODS” (HUTCHISON MEDIPHARMA LIMITED, priority 2012, published 2015).

Amino acid sequences for entries named in this document (tags omitted). A change or cut given only in a name is not applied to a line headed by its entry.
UniProt P42338, whole entry: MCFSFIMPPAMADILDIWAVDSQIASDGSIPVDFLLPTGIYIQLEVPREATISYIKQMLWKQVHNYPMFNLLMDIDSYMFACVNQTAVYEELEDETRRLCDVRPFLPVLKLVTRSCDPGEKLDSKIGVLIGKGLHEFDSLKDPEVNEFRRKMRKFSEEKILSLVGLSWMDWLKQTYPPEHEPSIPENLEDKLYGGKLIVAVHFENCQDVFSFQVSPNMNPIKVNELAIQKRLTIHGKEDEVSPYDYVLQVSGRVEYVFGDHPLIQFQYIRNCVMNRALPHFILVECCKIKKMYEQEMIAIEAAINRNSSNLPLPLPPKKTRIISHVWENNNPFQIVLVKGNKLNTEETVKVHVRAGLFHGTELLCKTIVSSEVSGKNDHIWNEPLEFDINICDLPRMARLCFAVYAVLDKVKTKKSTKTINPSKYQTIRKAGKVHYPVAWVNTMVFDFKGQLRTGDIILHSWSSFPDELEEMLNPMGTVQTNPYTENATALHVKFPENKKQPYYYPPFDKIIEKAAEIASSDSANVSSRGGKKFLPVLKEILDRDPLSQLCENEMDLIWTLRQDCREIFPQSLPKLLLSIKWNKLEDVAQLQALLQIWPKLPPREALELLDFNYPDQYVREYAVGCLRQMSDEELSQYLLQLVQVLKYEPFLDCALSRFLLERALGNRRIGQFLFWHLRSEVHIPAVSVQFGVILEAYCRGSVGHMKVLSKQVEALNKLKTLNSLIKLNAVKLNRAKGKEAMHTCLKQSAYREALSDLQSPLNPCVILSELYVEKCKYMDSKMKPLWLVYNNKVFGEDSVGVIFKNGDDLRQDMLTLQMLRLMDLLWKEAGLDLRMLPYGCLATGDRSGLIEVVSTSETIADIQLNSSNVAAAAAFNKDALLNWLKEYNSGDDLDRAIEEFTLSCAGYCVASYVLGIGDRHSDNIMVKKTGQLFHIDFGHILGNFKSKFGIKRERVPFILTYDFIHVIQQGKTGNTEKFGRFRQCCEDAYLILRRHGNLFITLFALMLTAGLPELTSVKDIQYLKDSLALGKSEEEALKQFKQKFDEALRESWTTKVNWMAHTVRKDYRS
UniProt O00329, whole entry: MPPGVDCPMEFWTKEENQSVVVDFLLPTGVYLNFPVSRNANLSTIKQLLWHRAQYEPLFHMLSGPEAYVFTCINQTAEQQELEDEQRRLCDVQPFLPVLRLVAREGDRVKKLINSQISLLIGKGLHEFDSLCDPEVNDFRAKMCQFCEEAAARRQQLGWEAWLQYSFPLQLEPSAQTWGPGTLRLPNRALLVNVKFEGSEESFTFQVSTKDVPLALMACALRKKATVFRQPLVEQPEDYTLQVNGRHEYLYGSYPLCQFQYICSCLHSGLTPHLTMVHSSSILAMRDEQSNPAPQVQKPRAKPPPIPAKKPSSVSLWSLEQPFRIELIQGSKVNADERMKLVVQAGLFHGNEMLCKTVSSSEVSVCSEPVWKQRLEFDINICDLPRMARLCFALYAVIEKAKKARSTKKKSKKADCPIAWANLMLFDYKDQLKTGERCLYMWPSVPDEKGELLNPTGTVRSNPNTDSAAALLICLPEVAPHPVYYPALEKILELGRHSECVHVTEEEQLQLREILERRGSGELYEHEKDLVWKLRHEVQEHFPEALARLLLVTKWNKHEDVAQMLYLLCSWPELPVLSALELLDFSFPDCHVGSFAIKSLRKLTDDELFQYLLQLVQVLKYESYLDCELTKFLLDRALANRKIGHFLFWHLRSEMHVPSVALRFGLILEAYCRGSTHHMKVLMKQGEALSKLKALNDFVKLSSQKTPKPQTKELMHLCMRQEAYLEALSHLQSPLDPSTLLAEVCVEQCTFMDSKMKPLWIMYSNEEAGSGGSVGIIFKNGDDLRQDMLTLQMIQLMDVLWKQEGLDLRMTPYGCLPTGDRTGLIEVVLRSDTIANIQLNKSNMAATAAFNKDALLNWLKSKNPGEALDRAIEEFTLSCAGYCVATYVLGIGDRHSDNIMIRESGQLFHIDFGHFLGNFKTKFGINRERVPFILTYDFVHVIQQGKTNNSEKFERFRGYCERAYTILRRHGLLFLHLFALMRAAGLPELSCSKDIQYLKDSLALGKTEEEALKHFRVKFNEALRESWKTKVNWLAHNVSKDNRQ
UniProt P27986, whole entry partner: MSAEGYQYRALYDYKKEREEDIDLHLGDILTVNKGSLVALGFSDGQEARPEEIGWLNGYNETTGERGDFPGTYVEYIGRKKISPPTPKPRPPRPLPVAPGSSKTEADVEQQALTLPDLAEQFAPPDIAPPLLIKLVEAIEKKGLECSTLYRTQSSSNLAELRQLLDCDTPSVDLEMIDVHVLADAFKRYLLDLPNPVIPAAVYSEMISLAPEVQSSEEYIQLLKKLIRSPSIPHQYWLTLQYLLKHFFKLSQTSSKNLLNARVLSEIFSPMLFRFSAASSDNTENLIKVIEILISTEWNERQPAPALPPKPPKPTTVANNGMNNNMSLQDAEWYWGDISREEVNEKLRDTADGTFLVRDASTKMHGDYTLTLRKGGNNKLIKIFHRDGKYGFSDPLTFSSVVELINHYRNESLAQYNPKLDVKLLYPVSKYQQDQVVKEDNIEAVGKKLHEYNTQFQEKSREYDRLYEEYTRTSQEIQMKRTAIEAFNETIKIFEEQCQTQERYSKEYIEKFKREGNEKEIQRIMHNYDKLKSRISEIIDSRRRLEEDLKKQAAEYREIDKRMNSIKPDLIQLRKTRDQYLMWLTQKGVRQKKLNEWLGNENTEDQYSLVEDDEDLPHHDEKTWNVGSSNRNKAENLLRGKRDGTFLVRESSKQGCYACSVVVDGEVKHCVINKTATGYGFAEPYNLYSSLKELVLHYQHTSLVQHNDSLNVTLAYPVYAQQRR

Assays:
[1] = target: p110β/p85α (Homo sapiens, UniProt P42338); assay: Transcreener KINASE Assay, kinase inhibition of p110β/p85α
[2] = target: p110δ/p85α (Homo sapiens, UniProt O00329); assay: Transcreener KINASE Assay, kinase inhibition of p110δ/p85α; type: biochemical

C[S@@+]([O-])c1c[nH]c2ncnc(N3C[C@@H](C#N)C[C@H]3c3nn4ccc(Cl)c4c(=O)n3-c3ccccc3)c12
PI3Kβ IH % @ 1 uM [1]: 22.4%
PI3Kδ IH % @ 1 uM [2]: 97.1%
